Test results published in PMC6398880 (Cancer Science, 2019).

What was measured:
[1] = test system: MDA‐MB‐436 (BRCA1‐deficient) xenograft; experiment: MDA‐MB‐436 cell‐line‐derived xenograft model; type: in vivo, nude mice; conditions: day 21
[2] = test system: MX‐1 (BRCA1‐deficient, BRCA2‐mutated) xenograft; experiment: MX‐1 cell‐line‐derived xenograft model; type: in vivo, nude mice; conditions: 10 mg/kg combined with TMZ 50 mg/kg, Figure 6C
[3] = 3 mg/kg combined with TMZ 50 mg/kg

Row | SMILES | partial tumor regression ([1]; 1 mg/kg combined with TMZ 50 mg/kg) | partial tumor regression [1, 3] | partial tumor regression [2]
1 | O=C(c1cc(Cc2n[nH]c(=O)c3ccccc23)ccc1F)N1CCn2nc(C(F)(F)F)nc2C1 [Fluzoparib] | 4/6 | 6/6 | 5/6
2 | O=C(c1cc(Cc2n[nH]c(=O)c3ccccc23)ccc1F)N1CCN(C(=O)C2CC2)CC1 [Olaparib] | – | 5/6 | –
